Test results from ChEMBL document CHEMBL1122654, “Phosphorus analogues of gamma-aminobutyric acid, a new class of anticonvulsants” (J Med Chem, 1984).

How the values were obtained:
Mus musculus [1] = assay: In vivo neurotoxicity at 600 mg/kg, number of animals exhibiting neurotoxicity in the rotarod test / number of animals tested 4 hr
Mus musculus [2] = assay: In vivo neurotoxicity at 600 mg/kg, number of animals exhibiting neurotoxicity in the rotarod test / number of animals tested at 0.5 hr

With `CCOP(=O)(NCCN)OCC` the Toxicity (Mus musculus [1]) was “Not Active” and the Toxicity (Mus musculus [2]) was “Partially active”.
